# Laboratory results taken from US9102669B2, “Substituted piperidinyl-pyridazinyl derivatives useful as SCD 1 inhibitors” (Janssen Pharmaceutica NV, priority 2011, dated 2015).
# Sequences of proteins named here, by UniProt entry; tags and fusion partners are left off. A change or cut given only in a name is not applied to a line headed by its entry.
# UniProt O00767: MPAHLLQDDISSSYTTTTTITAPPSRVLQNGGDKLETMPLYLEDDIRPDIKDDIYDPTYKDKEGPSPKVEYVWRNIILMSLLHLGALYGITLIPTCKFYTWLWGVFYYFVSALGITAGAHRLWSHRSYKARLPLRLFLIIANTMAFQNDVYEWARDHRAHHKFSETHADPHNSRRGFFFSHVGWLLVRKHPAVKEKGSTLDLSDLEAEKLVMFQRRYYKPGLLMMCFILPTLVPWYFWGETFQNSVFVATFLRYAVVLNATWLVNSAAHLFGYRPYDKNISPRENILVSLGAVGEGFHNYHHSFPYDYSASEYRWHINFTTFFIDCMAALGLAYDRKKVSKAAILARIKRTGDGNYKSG
# UniProt P07308: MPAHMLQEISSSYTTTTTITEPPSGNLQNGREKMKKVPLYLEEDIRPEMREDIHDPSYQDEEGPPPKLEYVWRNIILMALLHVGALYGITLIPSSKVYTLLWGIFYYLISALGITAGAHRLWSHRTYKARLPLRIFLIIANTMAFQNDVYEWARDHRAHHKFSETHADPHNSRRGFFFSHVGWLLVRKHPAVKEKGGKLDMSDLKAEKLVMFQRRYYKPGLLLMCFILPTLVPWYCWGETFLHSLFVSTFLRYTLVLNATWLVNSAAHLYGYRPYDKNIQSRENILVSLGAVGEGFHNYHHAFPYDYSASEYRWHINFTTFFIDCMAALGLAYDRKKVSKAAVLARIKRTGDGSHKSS
# Experiments:
# SCD1 [1] = molecular target: SCD1 (Homo sapiens (Human), UniProt O00767); assay: SCD1 13C-palmitic acid assay in A431 cells; assay type: cell-based; conditions: read-out: A431 cells 13C-PA IC50
# SCD1 [2] = molecular target: SCD1 (Rattus norvegicus (Rat), UniProt P07308); assay: SCD1 enzymatic assay in rat liver microsomes (RLM); assay type: biochemical
Structure (SMILES),IC50 (SCD1 [1]) [µM],IC50 (SCD1 [2]),% Inh.@ 1 μM (SCD1 [2]; 1 μM test compound),inhibition at 1 µM (SCD1 [2]; 1 μM test compound) [%]
"Cn1cc(-c2ccc(N3CCC(n4ccc5ccc(F)cc54)CC3)nn2)cn1 [Compound #63, 6-fluoro-1-(1-(6-(1-methyl-1H-pyrazol-4-yl)pyridazin-3-yl)piperidin-4-yl)-1H-indole]",0.025,–,–,–
"Cn1cc(-c2ccc(N3CCC(N4CCc5ccc(F)cc54)CC3)nn2)cn1 [Compound #11, 6-fluoro-1-(1-(6-(1-methyl-1H-pyrazol-4-yl)pyridazin-3-yl)piperidin-4-yl)indoline]",–,0.021 µM and 0.019 µM and 0.091 µM and 0.016 µM,100% and 94% and 102%,99
"Cn1cc(-c2ccc(N3CCC(N4CCc5ccc(C(F)(F)F)cc54)CC3)nn2)cn1 [Compound #60, 1-(1-(6-(1-methyl-1H-pyrazol-4-yl)pyridazin-3-yl)piperidin-4-yl)-6-(trifluoromethyl)indoline]",–,0.173 µM,–,81

# Several values for one entry are separate records, joined by “and”; a condition that tells them apart may be missing. Equal values may be shown once.
